# Experimental data: PubChem BioAssay AID652017 (The Scripps Research Institute Molecular Screening Center, 2013)
# Only a part is listed here, and it is no random draw. Some salts or complexes appear as unconnected parts, following the source record. Active and inactive are the calls of the source. Cut-off read from the data, not from the text of the source: active = activation above about 7.8%; inactive = the rest.
# Test: SMARCA2 (BRM) function activators, primary screen, cell-based, luminescence, high throughput (AID 652017);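 note: 0% = vehicle wells and 100% = reference activator wells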
# Settings: MG213 cells, MMTV-luciferase reporter, dexamethasone, overnight; at 9.1 µM; active compounds read high
row,SMILES,activation
1,CCN(CC)CCCNc1ccccc1[N+](=O)[O-].O=[N+]([O-])c1cc([N+](=O)[O-])c(O)c([N+](=O)[O-])c1,inactive: -0.58%
2,COc1ccc(OP(C)(=O)Nc2ccc(SC(F)(F)F)cc2)cc1 (stereo not drawn),inactive: -2.83%
3,CCOC(=O)c1ccc(NP(C)(=O)Oc2ccc(F)cc2)cc1 (stereo not drawn),inactive: 3.73%
4,CCN(CC)CCCOC(=O)C(O)(c1ccccc1)C1CCCCC1 (stereo not drawn),inactive: -0.03%
5,Cc1c([N+](=O)[O-])cc([N+](=O)[O-])c(Br)c1[N+](=O)[O-],inactive: 2.09%
6,O=[N+]([O-])c1cc([N+](=O)[O-])c(OC2CCCCC2O)c([N+](=O)[O-])c1 (stereo not drawn),inactive: -2.71%
7,CCCCCOc1ccc(NP(C)(=O)Oc2ccc(Cl)cc2Cl)cc1 (stereo not drawn),inactive: -1.01%
8,CP(=O)(Nc1ccccc1)Oc1ccc(F)cc1 (stereo not drawn),inactive: -0.93%
9,O=[N+]([O-])c1cc([N+](=O)[O-])c(Nc2ccc(Cl)cc2)c([N+](=O)[O-])c1,inactive: -12%
10,CC(C)c1ccc(OP(C)(=O)Nc2ccc(SC(F)(F)F)cc2)cc1 (stereo not drawn),inactive: -4.77%
11,CP(=O)(Nc1ccccc1F)Oc1ccccc1 (stereo not drawn),inactive: -3.25%
12,O=C(OCCN1CCN(CCOCc2ccccc2)CC1)C(O)(c1ccccc1)c1ccccc1,inactive: 1.1%
13,O=C(OC1CN2CCC1CC2)c1ccc([N+](=O)[O-])cc1 (stereo not drawn),inactive: -2.99%
14,COc1ccc2c(c1O)-c1c(O)c(OC)cc3c1[C@H](C2)[N+](C)(C)CC3.O=[N+]([O-])c1cc([N+](=O)[O-])c([O-])c([N+](=O)[O-])c1[O-],inactive: 1.9%
15,CP(=O)(Nc1ccc(SC(F)(F)F)cc1)Oc1ccc(F)cc1 (stereo not drawn),inactive: -4.32%
16,CCOP(=O)(CC)OCC,inactive: -7.07%
17,CCOP(C)(=S)SCC(=O)NC(C)(CC)C(=O)O (stereo not drawn),inactive: -3.45%
18,CP(=O)(Nc1ccc2c(c1)OCCO2)Oc1ccccc1 (stereo not drawn),inactive: 0.72%
19,O=[N+]([O-])c1cc([N+](=O)[O-])c(C(F)(F)F)c([N+](=O)[O-])c1O,inactive: -2.85%
20,Cc1ccccc1NP(C)(=O)Nc1ccccc1C,inactive: 2.12%
21,COc1ccc(OP(C)(=O)Nc2cccc(Br)c2)cc1 (stereo not drawn),inactive: -1.17%
22,COc1ccc(NP(C)(=O)Oc2ccccc2OC)cc1 (stereo not drawn),inactive: 1.13%
23,CN(C)CCOC(=O)C(O)(c1ccccc1)C1CCCCC1 (stereo not drawn),inactive: -7%
24,O=[N+]([O-])c1cc([N+](=O)[O-])c(NCC2CCS(=O)(=O)C2)c([N+](=O)[O-])c1 (stereo not drawn),inactive: 5.66%
25,Cc1cc(-c2cccc3ccccc23)c(C)cn1.O=[N+]([O-])c1cc([N+](=O)[O-])c(O)c([N+](=O)[O-])c1,inactive: 3.34%

row,SMILES,activation
1,O=[N+]([O-])c1ccc(OP2(=O)COCCO2)cc1 (stereo not drawn),inactive: -1.48%
2,Cc1c(C(c2ccc3c(c2)OCO3)c2c(C)n(C)n(-c3ccccc3)c2=O)c(=O)n(-c2ccccc2)n1C.O=[N+]([O-])c1cc([N+](=O)[O-])c(O)c([N+](=O)[O-])c1,inactive: -2.47%
3,Nc1ccc2c(ccc3cccnc32)n1.O=[N+]([O-])c1cc([N+](=O)[O-])c(O)c([N+](=O)[O-])c1,inactive: 3.78%
4,CP(=O)(OC12CC3CC(CC(C3)C1)C2)OC12CC3CC(CC(C3)C1)C2,inactive: -3.58%
5,CCOC(=O)c1ccc(NP(C)(=O)Oc2ccc(Cl)cc2)cc1 (stereo not drawn),inactive: -1.75%
6,COc1ccc(OP(C)(=O)Nc2ccc(Br)cc2)cc1 (stereo not drawn),inactive: 2.16%
7,CCN(CC)CC(O)COC(=O)C(O)(c1ccccc1)C1CCCCC1 (stereo not drawn),inactive: 1.19%
8,CCc1ccc(OP(C)(=O)Nc2cccnc2)cc1 (stereo not drawn),inactive: -2.94%
9,CP(=O)(Oc1ccccc1)N1CCOC1=O (stereo not drawn),inactive: -0.08%
10,O=C(OCCCN1CCCC1)C(O)(c1ccccc1)C1CCCCC1 (stereo not drawn),inactive: -3.3%
11,COc1ccccc1OP(C)(=O)Nc1c(C)n(C)n(-c2ccccc2)c1=O (stereo not drawn),inactive: -1.56%
12,CP(=O)(Nc1ccc(Cl)cc1)Oc1ccc(F)cc1 (stereo not drawn),inactive: -1.84%
13,CC(C)(C)c1ccc(OP(C)(=O)O)cc1,inactive: 0.58%
14,COc1ccccc1OP(C)(=O)Nc1ccccc1Br (stereo not drawn),inactive: -0.11%
15,CN(C)C(=O)c1c([N+](=O)[O-])cc([N+](=O)[O-])cc1[N+](=O)[O-],active: 8.31%
16,COc1ccccc1OP(C)(=O)Nc1ccc(Br)cc1 (stereo not drawn),inactive: 0.52%
17,CN(C)CCOC(=O)C(O)(c1ccccc1)C1CCCC1 (stereo not drawn),inactive: 2.1%
18,COc1ccc(OP(C)(=O)Nc2ccccn2)cc1 (stereo not drawn),inactive: -1.98%
19,O=[N+]([O-])c1cc([N+](=O)[O-])c(Nc2ccccn2)c([N+](=O)[O-])c1,inactive: -2.36%
20,Cc1c(NP(C)(=O)Oc2ccc(C(C)C)cc2)c(=O)n(-c2ccccc2)n1C (stereo not drawn),inactive: 0.4%
21,CCc1ccc(OP(C)(=O)O)cc1,inactive: 1.41%
22,COc1ccccc1OP(C)(=O)Nc1ccc(C)cc1C (stereo not drawn),inactive: -2.47%
23,CP(=O)(Nc1ccccn1)Oc1ccccc1 (stereo not drawn),inactive: 0.34%
24,Cc1cc(C)cc(OP(C)(=O)Nc2cccc(C(F)(F)F)c2)c1 (stereo not drawn),inactive: 0.1%
25,O=C1C(O)=C([N+](=O)[O-])C(=O)C(O)=C1[N+](=O)[O-],inactive: -3.34%

row,SMILES,activation
1,COc1ccc(OP(C)(=O)Nc2ccccc2Br)cc1 (stereo not drawn),inactive: -0.75%
2,COc1ccccc1OP(C)(=O)Nc1ccc(C)c(C)c1 (stereo not drawn),inactive: 0.22%
3,CP(=O)(OCCOc1ccccc1)OCCOc1ccccc1,inactive: -4.26%
4,CP(=O)(Nc1ccc(Cl)cc1Cl)Oc1ccccc1 (stereo not drawn),inactive: -2.53%
5,CCCCCCCCCCCCCCCC1C[N+](C)(C)CCOP(C)(=O)O1 (stereo not drawn),inactive: -2.4%
6,O=[N+]([O-])c1cc([N+](=O)[O-])c(Nc2cccnc2)c([N+](=O)[O-])c1,inactive: -1.25%
7,Cc1cccc(C)c1OP(C)(N)=O (stereo not drawn),inactive: -1.16%
8,CC(C)(C)c1ccc(OP(C)(=O)Nc2ccc(SC(F)(F)F)cc2)cc1 (stereo not drawn),inactive: -1.49%
9,O=[N+]([O-])c1ccc2c(c1)C=Nc1ccccc1O2,inactive: 0.78%
10,CCOC(=O)c1ccc(NP(C)(=O)Oc2ccccc2)cc1 (stereo not drawn),inactive: -3.09%
11,Cc1ccc(NP(C)(=O)Oc2ccccc2)c(C)c1 (stereo not drawn),inactive: -2.28%
12,COc1ccccc1OP(C)(=O)Nc1ccc(C)cc1 (stereo not drawn),inactive: -2.96%
13,COc1ccc(OP(C)(=O)Nc2cccc(F)c2)cc1 (stereo not drawn),inactive: -0.95%
14,COc1ccccc1OP(C)(=O)Nc1cc(Cl)ccc1C (stereo not drawn),inactive: 1.59%
15,Cc1cc(C)cc(OP(C)(N)=O)c1 (stereo not drawn),inactive: -3.05%
16,CCN(CC)CCCOC(=O)C(O)(c1ccccc1)c1ccccc1,inactive: -2.61%
17,COc1ccccc1-c1ccccn1.O=[N+]([O-])c1cc([N+](=O)[O-])c(O)c([N+](=O)[O-])c1,inactive: 0.95%
18,CP(=O)(Oc1ccccc1)OC(c1ccccc1)C(F)(F)F (stereo not drawn),inactive: -2.19%
19,CP(=O)(Nc1ccc(SC(F)(F)F)cc1)Oc1ccc(Cl)cc1 (stereo not drawn),inactive: -6.76%
20,Cc1cccc(C)c1OP(C)(=O)Nc1ccc(SC(F)(F)F)cc1 (stereo not drawn),inactive: 1.84%
21,Cc1cc(C)cc(OP(C)(=O)Nc2ccc(SC(F)(F)F)cc2)c1 (stereo not drawn),inactive: -1.66%
22,CCc1ccc(OP(C)(=O)N2CCN(c3ccc([N+](=O)[O-])cc3)CC2)cc1 (stereo not drawn),inactive: -5.07%
23,CP(=O)(NC(=O)Nc1ccccc1)Oc1ccccc1 (stereo not drawn),inactive: 0.7%
24,CCOP(C)(=S)SCC(=O)NC(C)C(=O)O (stereo not drawn),inactive: 1.15%
25,O=[N+]([O-])c1cc([N+](=O)[O-])c(O)c([N+](=O)[O-])c1.c1ccc(Oc2ccncc2)cc1,inactive: -0.18%

row,SMILES,activation
1,CCOC(=O)c1ccc(NP(C)(=O)Oc2ccc(OC)cc2)cc1 (stereo not drawn),inactive: -2.11%
2,CP(=O)(Nc1ccccn1)Oc1ccc(Cl)cc1 (stereo not drawn),inactive: -1.53%
3,CP(=S)(Nn1cnnc1)Oc1ccccc1 (stereo not drawn),inactive: 2.31%
4,COc1ccccc1OP(C)(=O)Nc1ccccc1 (stereo not drawn),inactive: 3.16%
5,CCOC(=O)C(CC)C1=NC(C)(C)Cc2ccccc21.O=[N+]([O-])c1cc([N+](=O)[O-])c(O)c([N+](=O)[O-])c1 (stereo not drawn),inactive: 0.63%
6,O=[N+]([O-])c1cc([N+](=O)[O-])c(Nc2nnnn2CCO)c([N+](=O)[O-])c1,inactive: -1.51%
7,CN1CCCCC1COC(=O)C1(O)c2ccccc2CCc2ccccc21 (stereo not drawn),inactive: -2.91%
8,COc1ccccc1OP(C)(=O)Nc1c(C)cccc1C (stereo not drawn),inactive: 1.08%
9,CP(=O)(Nc1ccc(SC(F)(F)F)cc1)Oc1ccccc1 (stereo not drawn),inactive: -2.24%
10,CCCOc1ccc(NP(C)(=O)Oc2ccc(Cl)cc2)cc1 (stereo not drawn),inactive: 4.03%
11,COc1ccc(-c2ccccn2)cc1.O=[N+]([O-])c1cc([N+](=O)[O-])c(O)c([N+](=O)[O-])c1,inactive: -2.69%
12,O=[N+]([O-])c1cc([N+](=O)[O-])c(-n2nnc3ccccc32)c([N+](=O)[O-])c1,inactive: -5.04%
13,CN(Cc1cccnc1)C(=O)COc1ccc(Cl)c(Cl)c1.O=[N+]([O-])c1cc([N+](=O)[O-])c(O)c([N+](=O)[O-])c1,inactive: -4.16%
14,O=[N+]([O-])c1cc([N+](=O)[O-])c(-c2cnn(-c3ccccc3)c2)c([N+](=O)[O-])c1,inactive: -3.15%
15,Cc1nc2ccc3ccccc3c2s1.O=[N+]([O-])c1cc([N+](=O)[O-])c(O)c([N+](=O)[O-])c1,inactive: -4.75%
16,COc1ccccc1OP(C)(=O)Nc1cccc(Br)c1 (stereo not drawn),inactive: -1.37%
17,Cc1cc(C)cc(OP(C)(=O)Nc2ccc(C)cc2C)c1 (stereo not drawn),inactive: 3.94%
18,CCOC(=O)c1ccc(NP(C)(=O)Oc2cc(C)cc(C)c2)cc1 (stereo not drawn),inactive: 0.67%
19,CP(=O)(Nc1cccc(Br)c1)Oc1ccccc1 (stereo not drawn),inactive: 1.62%
20,Cc1cc(C)cc(OP(C)(=O)Nc2ccccn2)c1 (stereo not drawn),inactive: -0.45%
21,Cc1ccc(C)c(NP(C)(=O)Oc2ccccc2)c1 (stereo not drawn),inactive: -1.89%
22,O=C(O)c1cccc(Nc2c([N+](=O)[O-])cc([N+](=O)[O-])cc2[N+](=O)[O-])c1,active: 9.58%
23,CC1=NCCc2c1[nH]c1ccccc21.O=[N+]([O-])c1cc([N+](=O)[O-])c(O)c([N+](=O)[O-])c1,inactive: -1.86%
